Results on one compound are retold here after patent US8304443B2, “Indazole derivatives” (Asahi Kasei Pharma Corporation, priority 2008, dated 2012).

The chains behind the UniProt entries cited, without tags or fusion partners.
UniProt P25100, whole entry: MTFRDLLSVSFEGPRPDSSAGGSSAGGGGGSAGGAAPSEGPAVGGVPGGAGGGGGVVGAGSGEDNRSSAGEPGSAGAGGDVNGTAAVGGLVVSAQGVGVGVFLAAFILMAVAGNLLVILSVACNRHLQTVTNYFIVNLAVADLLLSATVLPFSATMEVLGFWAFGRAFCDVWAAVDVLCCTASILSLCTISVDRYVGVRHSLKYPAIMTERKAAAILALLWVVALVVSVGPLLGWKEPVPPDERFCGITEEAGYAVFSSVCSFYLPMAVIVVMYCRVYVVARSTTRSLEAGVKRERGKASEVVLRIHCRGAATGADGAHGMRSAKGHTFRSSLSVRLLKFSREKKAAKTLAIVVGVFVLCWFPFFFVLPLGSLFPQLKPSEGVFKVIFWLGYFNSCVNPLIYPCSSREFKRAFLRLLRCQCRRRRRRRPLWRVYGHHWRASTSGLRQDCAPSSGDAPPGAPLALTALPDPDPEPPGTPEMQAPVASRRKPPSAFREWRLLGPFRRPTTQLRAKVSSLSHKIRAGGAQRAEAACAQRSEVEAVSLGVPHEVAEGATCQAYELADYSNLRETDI
UniProt P35348, whole entry: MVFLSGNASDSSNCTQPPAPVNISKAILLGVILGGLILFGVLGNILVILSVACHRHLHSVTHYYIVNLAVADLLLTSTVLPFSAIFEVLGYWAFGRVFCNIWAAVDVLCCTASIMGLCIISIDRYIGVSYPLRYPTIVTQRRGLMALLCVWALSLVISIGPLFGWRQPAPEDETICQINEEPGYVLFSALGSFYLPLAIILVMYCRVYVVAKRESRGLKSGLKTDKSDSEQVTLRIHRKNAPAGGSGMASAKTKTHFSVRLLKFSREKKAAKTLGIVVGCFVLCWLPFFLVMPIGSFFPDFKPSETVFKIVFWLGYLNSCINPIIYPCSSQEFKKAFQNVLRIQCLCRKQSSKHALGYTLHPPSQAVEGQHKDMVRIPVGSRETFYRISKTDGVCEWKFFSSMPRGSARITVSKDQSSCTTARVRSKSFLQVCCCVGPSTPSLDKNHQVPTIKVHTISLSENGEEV
UniProt P13945, whole entry: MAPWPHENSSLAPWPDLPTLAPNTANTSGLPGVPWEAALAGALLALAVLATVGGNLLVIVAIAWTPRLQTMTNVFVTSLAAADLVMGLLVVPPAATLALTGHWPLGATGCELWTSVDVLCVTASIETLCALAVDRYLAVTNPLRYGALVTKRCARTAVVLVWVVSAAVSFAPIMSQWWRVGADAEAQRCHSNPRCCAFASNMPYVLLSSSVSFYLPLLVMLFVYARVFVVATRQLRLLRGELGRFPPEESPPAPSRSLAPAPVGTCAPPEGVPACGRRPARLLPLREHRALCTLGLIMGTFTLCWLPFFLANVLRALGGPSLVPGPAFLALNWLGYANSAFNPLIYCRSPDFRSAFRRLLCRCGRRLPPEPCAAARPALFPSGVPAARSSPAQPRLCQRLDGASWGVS
UniProt P35368, whole entry: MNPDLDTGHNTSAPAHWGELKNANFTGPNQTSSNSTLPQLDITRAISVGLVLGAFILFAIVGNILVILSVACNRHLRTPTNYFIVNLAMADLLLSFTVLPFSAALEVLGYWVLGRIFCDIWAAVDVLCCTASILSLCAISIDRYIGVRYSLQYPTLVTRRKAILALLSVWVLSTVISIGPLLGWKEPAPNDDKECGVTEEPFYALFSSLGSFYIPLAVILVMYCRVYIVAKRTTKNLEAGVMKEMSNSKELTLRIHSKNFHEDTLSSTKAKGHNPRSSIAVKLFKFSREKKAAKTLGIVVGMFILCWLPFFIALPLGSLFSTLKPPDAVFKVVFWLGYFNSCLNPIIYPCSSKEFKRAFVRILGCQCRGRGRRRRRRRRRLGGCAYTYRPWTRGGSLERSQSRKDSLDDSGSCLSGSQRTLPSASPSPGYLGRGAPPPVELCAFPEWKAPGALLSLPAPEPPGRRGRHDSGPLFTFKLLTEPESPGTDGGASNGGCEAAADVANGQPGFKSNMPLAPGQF

In experiment [1] the target is human α1D adrenergic receptor (Homo sapiens, UniProt P25100). Nature of the experiment: Test example 6: human α1D adrenergic receptor agonist activity (SRE-luciferase). To be noted: HEK293 cells, luciferase reporter.
In experiment [2] the target is human α1A adrenergic receptor (Homo sapiens, UniProt P35348). Nature of the experiment: Test example 4: human α1A adrenergic receptor agonist activity (Ca flux, Fura-2). Format: cell-based.
Experiment [3] has as its target human β3 adrenergic receptor (Homo sapiens, UniProt P13945). Nature of the experiment: Test example 1-B: human β3 adrenergic receptor agonist activity (cAMP-Screen, 96-well). Format: cell-based. To be noted: read-out: β3 receptor EC50, Table 4, CHO cells with human β3 gene.
The target of experiment [4] is human α1B adrenergic receptor (Homo sapiens, UniProt P35368). Nature of the experiment: Test example 5: human α1B adrenergic receptor agonist activity (SRE-luciferase). To be noted: HEK293 cells, luciferase reporter.

With `COc1n[nH]c2cc(OCCNC[C@H](O)c3cccc(NS(C)(=O)=O)c3)ccc12`, the α1D agonist activity entry in experiment [1] is on record as “no α1D agonist activity”. Besides, the “α1A receptor I.A.” value was 60% in experiment [2] (Table 3, maximum response to norephinephrine taken as 100%) and 60% in experiment [2] (Table 4, maximum response to norephinephrine taken as 100%). In experiment [3], the EC50 came out at 40 nM. The α1B agonist activity entry in experiment [4] is listed as “no α1B agonist activity”.
